# Measurements published in patent EP0383919A1, “STAUROSPORIN DERIVATIVES” (KYOWA HAKKO KOGYO CO., LTD., priority 1988, dated 1989).
# Experiments:
# HeLa S3 cells = test: HeLa S3 cell growth inhibition assay; type: cell-based; details: 50% growth inhibition concentration; neutral red staining, absorbance at 550 nm; 72 hours incubation after washing; tested form: free base; approx. 1:1 mixture of diaste
# CoLo 320DM cells = test: CoLo 320DM cell growth inhibition assay; type: cell-based; details: 50% cell growth inhibition concentration; cell counting with a microcell counter; tested form: free base; approx. 1:1 mixture of diaste
smiles,measurement,setting,value
CCSC1NC(=O)c2c1c1c3ccccc3n3c1c1c2c2ccccc2n1C1CC(NC)C(OC)C3(C)O1 (centres unmarked),IC50 HeLa S3,HeLa S3 cells,0.16 mg/L
same,IC50 CoLo 320DM,CoLo 320DM cells,0.088 mg/L
